Drawing on US5780474A, “3-(piperid-4-yl)-1,2-benzisoxazole and 3-(piperazin-4-yl)-1,2-benzisoxazole compounds” (Adir et Compagnie, priority 1996, dated 1998), this text covers ED50 for one compound.

The structures appear in SMILES notation.

A short description of the data set: Induction of catalepsy in the rat. The following applies: in vivo, sc.

By ED50 is commonly meant the midpoint of the dose-response relation. Low readings indicate an effect at a small dose, high ones a need for a large dose. Take `Cc1nc2n(c(=O)c1CCN1CCC(c3noc4cc(F)ccc34)CC1)CCCC2` [risperidone]: it took a dose of 1.2 mg/kg to reach the 50% effect level (ED50 at 1 h).
